Reference: US10689458B2, “Site specific HER2 antibody drug conjugates” (Pfizer Inc., priority 2015, dated 2020)

Legend:
[1] = test system: Her2-expressing cell lines BT474 and SKBR3; assay: ADCC assay (LDH release, NK-92 or human PBMC effector cells); type: cell-based; details: 1 μg/ml antibody or ADC, 6 hours
[2] = test system: GA0044 patient-derived xenografts; assay: GA0044 patient-derived gastric cancer xenograft model; type: in vivo, mouse; details: IV Q4dx4, dose not stated
N87-TM-1 cells = details: N87-TM-1 versus parental N87
Method: (§1) N87 cells were passaged into two separate flasks and each flask was treated identically with respect to the resistance-generation protocol to enable biological duplicates. […] The procedure was intended to simulate the chronic, multi-cycle (on/off) dosing at maximally tolerated doses typically used for cytotoxic therapeutics in the clinic, followed by a recovery period. […] Data were collected from various thawed cryopreserved populations derived from a single selection, over approximately 1-2 years after model development to ensure consistency in the results.
(§2) ADCs were prepared as indicated in Example 3. Unconjugated maytansine analog (DM1) and auristatin analogs were prepared by Pfizer Worldwide Medicinal Chemistry (Groton, Conn.). Other standard-of-care chemotherapeutics were purchased from Sigma (St. Louis, Mo.). Cells were seeded in 96-well plates at low density, then treated the following day with ADCs and unconjugated payloads at 3-fold serial dilutions at 10 concentrations in duplicate. Cells were incubated for 4 days in a humidified 37° C./5% CO2 incubator. The plates were harvested by incubating with CellTiter® 96 AQueous One MTS Solution (Promega, Madison, Wis.) for 1.5 hours and absorbance measured on a Victor plate reader (Perkin-Elmer, Waltham, Mass.) at wavelength 490 nm. IC50 values were calculated using a four-parameter logistic model with XLfit (IDBS, Bridgewater, N.J.).

N87-TM-2 cells = details: N87-TM-2 versus parental N87
Method: as §1, §2

N87-TM-2 tumors = assay: In vivo efficacy on T-DM1 resistant N87-TM-2 tumors in NSG mice; design: species or system mouse; details: 6 and 10 mg/kg, Q4Dx4, N87-TM-2 model
N87-TM tumors = assay: In vivo efficacy on N87-TM tumors refractory to T-DM1, switch of therapy at day 14; design: species or system mouse; details: switch to T(kK183C+K290C)-vc0101 at day 14
[3] = test system: N87 cell line xenograft tumors; assay: Bystander effect, immunohistochemistry (human IgG, pHH3) of N87 xenograft tumors; type: in vivo, mouse; details: single dose, T-DM1 6 mg/kg or T-vc0101 3 mg/kg, 96 hours
Text: The ability of a released ADC payload to kill neighboring cells is known as the bystander effect. […] Tumor sections were stained for human IgG to detect ADC bound to tumor cells and phospho-histone H3 (pHH3) to detect mitotic cells as a readout of the proposed mechanism of action for the payloads of both ADCs.

[4] = test system: T-DM1 resistant cells (N87-TDM); assay: Cytotoxicity on cells relapsed from T-DM1 treatment in vivo (CellTiter Glo, 96 hours); type: cell-based; details: compared to parental N87
Method: Cells were incubated for 96 hours in a humidified 37° C./5% CO2 incubator.

Substance: trastuzumab
- ADCC activity (in words) [1]: conform the reported ADCC activities
- tumor growth compared to vehicle [2]: no appreciable difference in tumor growth as compared to vehicle treated tumors

Substance: T-DM1
- refractory to the ADC compared with parental cells (N87-TM-1 cells): 114 fold
- refractory to the ADC compared with parental cells (N87-TM-2 cells): 146 fold
- prevention of tumor doubling (N87-TM-2 tumors): failed to do so
- tumor growth response (N87-TM tumors): grew through these treatments

Substance: T-vc0101: trastuzumab conventionally conjugated to 0101 via vc linker; DAR 4.2
- bystander effect [3]: able to elicit a strong bystander effect; also recorded: Bystander activity is observed
- location of the majority of pHH3 positive tumor cells [3]: extend beyond the location of the ADC
- sensitivity of cells relapsed from T-DM1 treatment (in words) [4]: sensitive

“Also recorded” adds a separate entry of the source.
